Values quoted from earlier work, collected in paper PMC6481172.

Protein sequences, listed by entry. Tags and fused reporters are not part of them.
UniProt Q93009, whole entry: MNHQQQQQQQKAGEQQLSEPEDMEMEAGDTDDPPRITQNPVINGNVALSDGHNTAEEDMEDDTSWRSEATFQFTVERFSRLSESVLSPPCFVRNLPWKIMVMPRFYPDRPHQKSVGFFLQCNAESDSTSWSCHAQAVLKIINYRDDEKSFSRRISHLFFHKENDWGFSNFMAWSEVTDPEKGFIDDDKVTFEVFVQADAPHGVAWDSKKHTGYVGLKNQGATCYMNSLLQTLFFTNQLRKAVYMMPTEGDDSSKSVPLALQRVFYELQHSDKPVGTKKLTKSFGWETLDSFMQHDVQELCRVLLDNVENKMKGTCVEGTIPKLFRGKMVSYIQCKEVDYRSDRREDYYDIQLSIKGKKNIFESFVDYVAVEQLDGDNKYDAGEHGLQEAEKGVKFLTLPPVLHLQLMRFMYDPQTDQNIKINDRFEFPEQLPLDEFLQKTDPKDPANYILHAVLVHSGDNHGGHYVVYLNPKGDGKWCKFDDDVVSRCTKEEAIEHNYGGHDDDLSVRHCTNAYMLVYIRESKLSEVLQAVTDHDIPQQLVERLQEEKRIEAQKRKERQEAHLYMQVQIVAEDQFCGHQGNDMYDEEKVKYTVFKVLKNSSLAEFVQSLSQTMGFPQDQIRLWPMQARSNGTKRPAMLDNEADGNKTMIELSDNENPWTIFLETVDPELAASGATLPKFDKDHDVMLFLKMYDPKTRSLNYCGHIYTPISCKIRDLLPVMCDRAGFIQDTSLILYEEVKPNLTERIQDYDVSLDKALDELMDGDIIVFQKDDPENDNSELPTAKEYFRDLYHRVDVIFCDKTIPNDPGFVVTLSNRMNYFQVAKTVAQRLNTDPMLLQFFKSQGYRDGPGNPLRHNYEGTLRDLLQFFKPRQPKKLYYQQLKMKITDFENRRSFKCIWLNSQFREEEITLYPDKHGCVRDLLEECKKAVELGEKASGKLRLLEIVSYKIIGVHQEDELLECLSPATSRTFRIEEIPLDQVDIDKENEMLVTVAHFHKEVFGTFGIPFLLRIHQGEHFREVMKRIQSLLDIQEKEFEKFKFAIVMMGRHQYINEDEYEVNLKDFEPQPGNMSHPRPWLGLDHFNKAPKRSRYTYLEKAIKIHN

Biological target: ubiquitin (Homo sapiens) (UniProt P0CG47)
Assay: NMR

For USP7 (from UniProt Q93009), which Kd is on record?
Its Kd is 106 µM.
